The source of these data is paper PMC11181486, “Nonsymmetrically Substituted 1,1′-Biphenyl-Based Small Molecule Inhibitors of the PD-1/PD-L1 Interaction” (ACS Medicinal Chemistry Letters, 2024).

This test concerns the target PD-1/PD-L1 (Homo sapiens, UniProt Q9NZQ7). The class given is cell-based. Details: host or cells: PD-L1+ aAPC/CHO-K1 cells; PD-1 effector Jurkat cells. Particulars: PD-L1+ aAPC/CHO-K1 cells cocultured 6 h with PD-1 effector Jurkat cells; read-out: PD-1/PD-L1 blockade, NFAT reporter bioassay EC50. How it is done:
The PD-1/PD-L1 immune checkpoint bioassay (PD-1/PD-L1 Bioassay, Promega) was conducted according to the manufacturer’s protocol. PD-L1+ aAPC/CHO-K1 cells were seeded at a density of […] in 100 μL of medium [Ham’s F12, 10% fetal bovine serum (FBS)] in 96-well white flat-bottomed plates and incubated overnight at 37 °C in the presence of 5% CO2. The next day, the medium was removed, and serial dilutions of small molecule inhibitors were added at 40 μL per well in assay buffer (RPMI1640 + 1% FBS + 1% DMSO). […] The cells were cocultured for 6 h at 37 °C with 5% CO2 followed by a 5 min equilibration at room temperature. Bio-Glo Reagent (Promega) was prepared and added at 80 μL per well. After a 15 min incubation at room temperature, luminescence was measured using a Tecan Spark microplate reader. Data are presented as fold induction of luminescence relative to DMSO-treated cells. EC50 values were calculated using the log(inhibitor) vs response variable slope (four-parameter) analysis model with GraphPad Prism software.
For the molecule `COC(=O)[C@H](C)NCc1ccc(C(=O)Nc2cccc(-c3cccc(NC(=O)c4ccc(CN5CCCC5)cn4)c3C)c2C)nc1` [Compound 6], the EC50 amounted to 757 nM.
Under `Cc1c(NC(=O)c2ccc(CN(C)CCO)cn2)cccc1-c1cccc(NC(=O)c2ccc(CN(CCO)CCO)cn2)c1C` [Compound 8] stands 255 nM.
The result for `Cc1c(NC(=O)c2ccc(CNCCCO)cn2)cccc1-c1cccc(NC(=O)c2ccc(CN[C@@H]3CCC[C@H]3O)cn2)c1C` [Compound 12] reads 136 nM; that for `Cc1c(NC(=O)c2ccc(CN[C@@H]3CCC[C@H]3O)cn2)cccc1-c1cccc(NC(=O)c2ccc(CN(C)CCO)cn2)c1C` [Compound 1], 208 nM.
The result for `Cc1c(NC(=O)c2ccc(CNCCCO)cn2)cccc1-c1cccc(NC(=O)c2ccc(CN(C)CCO)cn2)c1C` [Compound 7] reads 66.8 nM.
`Cc1c(NC(=O)c2ccc(CNCCO)cn2)cccc1-c1cccc(NC(=O)c2ccc(CNCCNS(C)(=O)=O)cn2)c1C` [Compound 16]: the EC50 was 257 nM.
